Values of other authors in patent US10500232B2, “Small molecule cellular reprogramming to generate neuronal cells” (The J. David Gladstone Institutes, a testamentary trust …, priority 2013, dated 2019).

Protein sequences, listed by entry. Tags and fused reporters are not part of them.
UniProt P0DMS8, whole entry: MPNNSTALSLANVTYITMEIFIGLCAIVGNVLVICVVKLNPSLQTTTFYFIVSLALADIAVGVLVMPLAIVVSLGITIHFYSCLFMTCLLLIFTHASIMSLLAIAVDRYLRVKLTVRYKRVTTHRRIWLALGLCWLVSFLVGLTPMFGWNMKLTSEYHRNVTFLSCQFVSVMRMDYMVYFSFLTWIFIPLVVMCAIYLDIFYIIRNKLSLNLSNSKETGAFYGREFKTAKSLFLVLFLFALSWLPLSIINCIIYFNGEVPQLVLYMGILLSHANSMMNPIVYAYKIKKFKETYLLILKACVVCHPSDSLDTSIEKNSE

Target: human A3 adenosine receptors (Homo sapiens, UniProt P0DMS8)
Settings: cited from earlier work

In the case of `CC(Cc1ccccc1)Nc1ncnc2c1ncn2C1OC(CO)C(O)C1O` (single isomer, unassigned; (-)) [(R)-PIA, (−)-N6-(2-Phenylisopropyl)adenosine], the Ki is given as about 1.2 nM.
For `C[C@@H](Cc1ccccc1)Nc1ncnc2c1ncn2[C@@H]1O[C@H](CO)[C@@H](O)[C@H]1O` [(S)-PIA, (2R,3S,4R,5R)-2-(hydroxymethyl)-5-[6-[[(2S)-1-phenylpropan-2-yl]amino]purin-9-yl]oxolane-3,4-diol], the Ki is given as about 240 nM.
